In PubChem BioAssay AID1259374 (The Scripps Research Institute Molecular Screening Center, 2018):
Only a part is listed here, and it is no random draw. Some tests of the compounds listed are not included; inactive here does not mean inactive elsewhere. Activity calls are given as the source filed them. No stated cut-off is given here; in the data, active means inhibition above about 50%; inactive means the rest.

Amino acid sequences for entries named in this document (tags omitted).
UniProt O75030, whole entry: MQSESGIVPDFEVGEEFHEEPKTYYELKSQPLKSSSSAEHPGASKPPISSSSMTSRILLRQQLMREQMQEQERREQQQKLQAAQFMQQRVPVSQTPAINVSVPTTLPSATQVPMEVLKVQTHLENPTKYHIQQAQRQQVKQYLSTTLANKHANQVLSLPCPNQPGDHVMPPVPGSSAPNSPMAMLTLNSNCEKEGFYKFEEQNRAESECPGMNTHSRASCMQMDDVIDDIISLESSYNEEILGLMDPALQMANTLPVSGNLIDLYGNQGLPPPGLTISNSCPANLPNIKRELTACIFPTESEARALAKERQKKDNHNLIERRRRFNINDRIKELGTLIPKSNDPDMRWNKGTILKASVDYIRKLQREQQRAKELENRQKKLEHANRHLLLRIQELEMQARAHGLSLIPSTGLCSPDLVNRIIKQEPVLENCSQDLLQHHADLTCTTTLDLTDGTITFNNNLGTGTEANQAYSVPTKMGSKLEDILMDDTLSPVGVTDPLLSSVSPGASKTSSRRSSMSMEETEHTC

Molecular target: Microphthalmia-associated transcription factor (Homo sapiens) (UniProt O75030)
Experiment: MITF inhibitors, primary screen, biochemical, AlphaScreen, human (AID 1259374);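 further: 0% = vehicle wells with protein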
Conditions: AlphaScreen MITF homodimerization, bead proximity signal; at 2.6 µM; active compounds read high

SMILES | inhibition
COc1ccc(C(=O)NCC2(N(C)C)CCCCC2)cc1 | inactive: 17.8%
CC(C)N(CCOC(=O)C(O)(c1ccccc1)c1ccccc1)C(C)C | inactive: 14.2%
CC(CCN(C)C)OC(=O)C(O)(c1ccccc1)c1ccccc1 (stereo not given) | inactive: -7.16%
CN(C)C1(CNC(=O)c2n[nH]c3ccccc23)CCCCC1 | inactive: -12%
CN(C)C1CCCC1OC(=O)C(O)(c1ccccc1)c1ccccc1 (stereo not given) | inactive: -5.84%
CN(C)c1ccc(C(=O)NCC2(N(C)C)CCCCC2)cc1 | inactive: 16.1%
CN1CCCC(COC(=O)C(O)(c2ccccc2)c2ccccc2)C1 (stereo not given) | inactive: -11.7%
COc1cc(SC)ccc1C(=O)NCC1(N(C)C)CCCCC1 | inactive: 7.33%
O=C(NCC1(N2CCOCC2)CCCCC1)c1cnc(Cl)c(Cl)c1 | inactive: -0.86%
CC(C)Oc1ccc(C(=O)NCC2(N(C)C)CCCCC2)cc1 | inactive: -6.42%
CN(C)c1cccc(C(=O)NCC2(N(C)C)CCCCC2)c1 | inactive: -3.25%
CN1C2CCC1CC(OC(=O)C(O)(c1ccccc1)c1ccccc1)C2 (stereo not given) | inactive: -7.41%
CN(C)C1(CNC(=O)c2c(F)cccc2F)CCCCC1 | inactive: 3.33%
COc1cccc(C(=O)NCC2(N3CCCCC3)CCCCC2)c1 | inactive: -1.28%
COc1ccc(Cl)cc1C(=O)NCC1(N(C)C)CCCCC1 | inactive: 11.3%
